According to publication PMC9207808 (ACS Chemical Biology, 2022):
pKd: −log10 of the molar value.

Sequences of proteins named here, by UniProt entry; tags and fusion partners are left off. A change or cut given only in a name is not applied to a line headed by its entry.
UniProt Q06259: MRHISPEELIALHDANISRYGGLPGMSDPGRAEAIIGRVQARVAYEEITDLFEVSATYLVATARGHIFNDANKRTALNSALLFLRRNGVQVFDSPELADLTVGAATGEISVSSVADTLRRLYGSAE

Legend:
[1] = target: Doc (Salmonella Typhimurium) (UniProt Q06259); conditions: cited from earlier work
DocSTm = test: Surface plasmon resonance binding to immobilised Doc; set-up: species or system S. Typhimurium; conditions: SPR kinetic fit
Experimental: Experiments were performed in a Biacore S200 (Cytiva) with a Series S sensor chip NTA (Cytiva). The data was analyzed using the Biacore Evaluation Software (Cytiva) and curves were plotted using GraphPad Prism 5 (GraphPad Software, U.S.A.). All experiments were performed at 22 °C with a running buffer containing 10 mM HEPES, 500 mM NaCl, 50 μM EDTA, and 0.005% (v/v) TWEEN 20 at pH 8.0. The surface was conditioned following the standard manufacturer’s guidelines and protein immobilization was performed with a 30–60 s pulse (flow rate of 5 μL/min) of Doc (150 nM) in running buffer. […] Surface regeneration was performed with a 1 min pulse of 0.5 M imidazole followed by a 1 min pulse of 0.35 M of EDTA at pH 8.0.
Binding to Doc was performed using a multicycle kinetics (MCK) setup for peptides 7, 10, and 14, while the remaining samples were tested using a single-cycle kinetics (SCK) setup. The surface was fully regenerated in between each analyte in both cases. In the MCK experiments, increasing concentrations of each analyte were injected with an 80 s pulse (30 μL/min) and dissociation times varied depending on the time required to fully dissociate the complex. The double-referenced sensorgrams (raw data subtracted from a blank injection and reference surface responses) were analyzed using a kinetic and/or a steady-state 1:1 binding model. In the SCK experiments, typically six concentrations of each analyte were sequentially injected with 80 s pulses (30 μL/min), and dissociation times varied depending on the time required to dissociate at least 5% of the complex. The double-referenced sensorgrams were fitted using a kinetic 1:1 binding model.
At least three independent replicates were measured for each analyte (ESI section 5). When a steady-state fit was applied, the reported Kd and its uncertainty correspond, respectively, to the average and standard deviations of the Kd obtained in each measurement. […] In this case, reported Kd were calculated using the equation below, and the standard deviation of the rate constants was propagated. […]

Row | Substance | pKd [1] | pKd (DocSTm; replicate 1) | pKd (DocSTm; replicate 2) | pKd (DocSTm; replicate 3)
1 | Phd (from UniProt Q06253) | 6.46 |  |  | 
2 | PhdSTm: full-length wild-type Phd antitoxin protein of S. Typhimurium |  | 10.29 | 10.30 | 10.05
